This is an account of results in US20160009686A1, “VEGFR3 INHIBITORS” (CANCER THERAPEUTICS CRC PTY LIMITED, priority 2012, published 2016).

By UniProt entry, the sequences of proteins in these tests, tags left out. Residues count along the entry.
UniProt P35916, 798-1298 isoform P35916-1: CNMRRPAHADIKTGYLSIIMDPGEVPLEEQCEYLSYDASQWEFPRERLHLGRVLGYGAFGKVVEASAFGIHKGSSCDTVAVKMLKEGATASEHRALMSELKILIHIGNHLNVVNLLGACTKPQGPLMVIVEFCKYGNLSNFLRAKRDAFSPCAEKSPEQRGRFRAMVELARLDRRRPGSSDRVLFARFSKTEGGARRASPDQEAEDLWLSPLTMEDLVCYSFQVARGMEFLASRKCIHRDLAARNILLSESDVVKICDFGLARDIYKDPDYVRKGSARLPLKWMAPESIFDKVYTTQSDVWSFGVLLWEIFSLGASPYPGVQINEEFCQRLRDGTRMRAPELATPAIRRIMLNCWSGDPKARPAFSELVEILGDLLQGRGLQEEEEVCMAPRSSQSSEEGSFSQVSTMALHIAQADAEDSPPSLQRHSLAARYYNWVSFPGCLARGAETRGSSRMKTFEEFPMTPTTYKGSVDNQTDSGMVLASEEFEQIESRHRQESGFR
UniProt P35916, 25-1363: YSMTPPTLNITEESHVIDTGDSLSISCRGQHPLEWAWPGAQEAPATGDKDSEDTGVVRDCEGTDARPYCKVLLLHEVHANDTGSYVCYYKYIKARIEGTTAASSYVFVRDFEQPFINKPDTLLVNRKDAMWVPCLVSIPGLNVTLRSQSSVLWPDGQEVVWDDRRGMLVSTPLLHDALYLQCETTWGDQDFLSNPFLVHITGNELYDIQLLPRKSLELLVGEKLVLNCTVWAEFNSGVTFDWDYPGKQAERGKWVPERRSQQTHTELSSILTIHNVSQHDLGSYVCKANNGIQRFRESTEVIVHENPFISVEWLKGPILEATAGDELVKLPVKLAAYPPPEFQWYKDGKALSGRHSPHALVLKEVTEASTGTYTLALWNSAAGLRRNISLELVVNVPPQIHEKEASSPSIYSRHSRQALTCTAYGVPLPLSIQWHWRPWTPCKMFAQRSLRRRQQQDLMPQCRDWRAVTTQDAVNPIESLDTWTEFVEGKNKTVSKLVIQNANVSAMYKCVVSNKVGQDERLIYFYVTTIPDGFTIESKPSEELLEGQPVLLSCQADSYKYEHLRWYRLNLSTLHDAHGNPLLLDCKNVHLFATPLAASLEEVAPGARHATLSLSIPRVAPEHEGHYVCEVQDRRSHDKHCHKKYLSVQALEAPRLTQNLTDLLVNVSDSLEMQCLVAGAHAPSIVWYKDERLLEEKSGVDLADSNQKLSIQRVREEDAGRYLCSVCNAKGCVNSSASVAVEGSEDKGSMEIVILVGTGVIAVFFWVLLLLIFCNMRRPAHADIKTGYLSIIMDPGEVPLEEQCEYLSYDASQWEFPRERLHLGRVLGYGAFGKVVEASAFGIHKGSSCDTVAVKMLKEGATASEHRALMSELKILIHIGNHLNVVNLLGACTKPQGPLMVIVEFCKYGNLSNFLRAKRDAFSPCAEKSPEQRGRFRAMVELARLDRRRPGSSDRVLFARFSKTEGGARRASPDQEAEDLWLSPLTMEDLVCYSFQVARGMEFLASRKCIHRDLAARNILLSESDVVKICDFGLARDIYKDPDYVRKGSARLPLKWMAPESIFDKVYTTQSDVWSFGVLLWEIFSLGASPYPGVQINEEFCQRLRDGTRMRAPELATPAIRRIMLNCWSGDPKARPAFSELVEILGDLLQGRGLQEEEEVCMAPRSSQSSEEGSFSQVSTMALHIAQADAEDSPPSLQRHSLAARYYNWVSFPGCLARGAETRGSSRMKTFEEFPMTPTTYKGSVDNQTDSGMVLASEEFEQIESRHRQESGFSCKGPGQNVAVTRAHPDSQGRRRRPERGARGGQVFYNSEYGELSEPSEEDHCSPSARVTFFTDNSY

Assay [1] concerns the target VEGFR3 cytoplasmic domain (Homo sapiens, UniProt P35916). Put plainly: VEGFR3 Biochemical Assay (AlphaScreen). The settings on record: GST-fusion enzyme, 500 μM ATP, 90 minutes at 30 degree Celsius (modified form in some cases: Hexa-His-fusion enzyme, 1 μM ATP). A general note: In Alpha technology, singlet oxygen from a donor bead excites a nearby acceptor bead.
In assay [2] the target is VEGFR3 (Homo sapiens, UniProt P35916). Put plainly: VEGFR3 Phospho ELISA Assay. The settings on record: HMVEC-dLyAD cells, treated for 1 hour, VEGFC stimulated; phospho VEGFR3 relative to Total VEGFR3. The format is cell-based. For orientation: ELISA stands for enzyme-linked immunosorbent assay.

Take `CC(C(N)=O)c1ccccc1CCc1nc(Nc2cnn(C3CCN(C)CC3)c2)ncc1C(F)(F)F` (stereo not drawn) [Compound 57, 2-(2-(2-(2-((1-(1-Methylpiperidin-4-yl)-1H-pyrazol-4-yl)amino)-5-(trifluoromethyl)pyrimidin-4-yl)ethyl)phenyl)propanamide]: the IC50 in assay [1] and in assay [2] was 0.027 µM in each case.

Regarding `CC(C(N)=O)c1ccccc1CCc1nc(Nc2cnn(C3CCN(C)CC3)c2)ncc1C(F)(F)F` (single isomer, unassigned) [Compound 57-2A, 2-(2-(2-(2-((1-(1-Methylpiperidin-4-yl)-1H-pyrazol-4-yl)amino)-5-(trifluoromethyl)pyrimidin-4-yl)ethyl)phenyl)propanamide], the IC50 (in general, the concentration at which inhibition is half-maximal) in assay [2] came to 0.019 µM.
